Test results published in ChEMBL document CHEMBL4808166, “Exploring the Chemistry of Alkaloids from Malaysian Mitragyna speciosa (Kratom) and the Role of Oxindoles on Human Opioid Receptors” (J Nat Prod, 2021).

Test system: Rattus norvegicus
Assay: Antinociceptive activity in iv dosed Sprague-Dawley rat assessed as hot plate latency compound administered as cumulative dose at 5 mins intervals by Hot-plate test
Type: functional
Outline: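 Adult female and male Sprague-Dawley rats (10 weeks, n = 6, three per sex) with right external jugular vein catheter. Vehicle 5% Tween 80 + 5% propylene glycol in sterile water, 1.0 mL/kg i.v. After baseline, vehicle then ascending cumulative doses every 5 min, then naltrexone 0.1 mg/kg i.v. Plate at 52 °C, 60 s cutoff. Latency converted to %MPE; ED50 (95% CI) by linear regression.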

**Q.** For `CN1CC[C@]23c4c5ccc(O)c4O[C@H]2[C@@H](O)C=C[C@H]3[C@H]1C5` [MORPHINE], which ED50 is on record?
**A.** 12.1 mg/kg
